According to PubChem BioAssay (EPA / NIEHS):
This is a selection; strong and weak results do not stand in their true shares. The source made the active and inactive calls. The calls were made as follows: active = hit-call score of the fitted dose curve at least 0.9, where 1 is the maximum; inactive = score below 0.9.

Protein sequences, listed by entry. Tags and fused reporters are not part of them.
UniProt Q9UNQ0, whole entry: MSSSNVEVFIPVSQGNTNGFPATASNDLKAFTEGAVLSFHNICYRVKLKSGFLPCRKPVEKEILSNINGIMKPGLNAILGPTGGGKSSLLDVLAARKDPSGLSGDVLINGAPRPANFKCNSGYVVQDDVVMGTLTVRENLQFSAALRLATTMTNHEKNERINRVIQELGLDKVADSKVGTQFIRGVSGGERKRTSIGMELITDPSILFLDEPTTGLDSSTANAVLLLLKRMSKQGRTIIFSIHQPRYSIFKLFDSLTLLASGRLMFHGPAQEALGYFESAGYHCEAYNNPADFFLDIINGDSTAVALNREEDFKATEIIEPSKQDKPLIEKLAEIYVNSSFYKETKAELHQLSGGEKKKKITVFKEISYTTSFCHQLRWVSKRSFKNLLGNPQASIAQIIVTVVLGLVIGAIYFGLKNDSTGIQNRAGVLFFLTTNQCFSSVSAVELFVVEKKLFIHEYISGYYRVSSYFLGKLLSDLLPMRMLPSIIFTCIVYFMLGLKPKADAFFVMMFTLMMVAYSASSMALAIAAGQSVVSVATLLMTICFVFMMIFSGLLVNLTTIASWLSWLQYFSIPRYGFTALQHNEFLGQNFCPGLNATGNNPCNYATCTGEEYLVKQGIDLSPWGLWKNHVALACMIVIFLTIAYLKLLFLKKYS

Tests used:
Conditions in all cases: actives raise or lower the signal; mRNA level, 48 h
[1] = read-out: Broad substrate specificity ATP-binding cassette transporter ABCG2 (Homo sapiens) (UniProt Q9UNQ0); assay: LTEA_HepaRG_ABCG2: Life Technologies and Expression Analysis (LTEA) Assay for ABC Transporter (ABCG2) using HepaRG (AID 2283465)
How it was run: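 Differentiated HepaRG cells were exposed for 48 h in serum-free induction medium to 8 half-log concentrations, top 100 uM, in 0.5% DMSO. ABCG2 mRNA was measured by qRT-PCR, normalized to ACTB, GAPDH and POLR2A, with bidirectional fitting versus DMSO.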

[2] = read-out: ATP-citrate lyase (ACLY), ACLY (gene 47); assay: LTEA_HepaRG_ACLY: Life Technologies and Expression Analysis (LTEA) Assay for ATP-citrate lyase (ACLY) using HepaRG (AID 2283466)
How it was run: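 Differentiated HepaRG cells exposed 48 h in serum-free induction medium to eight half-log concentrations up to 100 uM in 0.5% DMSO, duplicates. Transcript measured by Fluidigm TaqMan qRT-PCR, normalized to ACTB, GAPDH, POLR2A; bidirectional fit versus DMSO.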

[3] = read-out: Peroxisomal acyl-coenzyme A oxidase 1 (ACOX1) gene, ACOX1 (gene 51); assay: LTEA_HepaRG_ACOX1: Life Technologies and Expression Analysis (LTEA) Assay for Peroxisomal acyl-coenzyme A oxidase 1 (ACOX1) gene using HepaRG (AID 2283467)
How it was run: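 HepaRG cells, plated 48 h then switched to serum-free induction medium, were exposed in duplicate for 48 h to 8-point half-log concentrations up to 100 uM in 0.5% DMSO. ACOX1 mRNA was measured by qRT-PCR, normalized to ACTB/GAPDH/POLR2A, and fitted bidirectionally versus DMSO.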

[4] = read-out: Alkaline Phosphatase, Placental (ALPP) gene, ALPP (gene 250); assay: LTEA_HepaRG_ALPP: Life Technologies and Expression Analysis (LTEA) Assay for Alkaline Phosphatase, Placental (ALPP) gene using HepaRG (AID 2283468)
How it was run: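 ALPP transcript level, measured by qRT-PCR and normalized to three housekeeping genes (ACTB, GAPDH, POLR2A), after 48 h dosing of differentiated HepaRG in serum-free induction medium. Top concentration 100 uM with half-log dilutions (8 points, 0.5% DMSO, duplicates); bidirectional fitting relative to DMSO.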

[5] = read-out: Bcl-2 (BAD) gene, BAD (gene 572); assay: LTEA_HepaRG_BAD: Life Technologies and Expression Analysis (LTEA) Assay for Bcl-2 (BAD) gene using HepaRG (AID 2283469)
How it was run: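 Differentiated HepaRG cells were exposed in duplicate in 0.5% DMSO for 48 h to eight-point half-log concentrations up to 100 uM. BAD mRNA was measured by Fluidigm TaqMan qRT-PCR, normalized to ACTB, GAPDH and POLR2A, and fitted bidirectionally against DMSO.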

[6] = read-out: Bcl-2 (BAX) gene, BAX (gene 581); assay: LTEA_HepaRG_BAX: Life Technologies and Expression Analysis (LTEA) Assay for Bcl-2 (BAX) gene using HepaRG (AID 2283470)
How it was run: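 Concentration-response endpoint fitted in both directions relative to 0.5% DMSO vehicle. Human HepaRG cultures receive test chemicals for 48 h at up to 100 uM; BAX mRNA is quantified by qRT-PCR against housekeeping genes.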

[7] = read-out: adenosine kinase (ADK) gene, ADK (gene 132); assay: LTEA_HepaRG_ADK: Life Technologies and Expression Analysis (LTEA) Assay for adenosine kinase (ADK) gene using HepaRG (AID 2283471)
How it was run: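 ADK expression quantified by qRT-PCR, normalised to three housekeeping genes, after 48 h exposure of HepaRG cells to eight concentrations (top 100 uM, half-log steps, duplicate, 0.5% DMSO). Up- or down-regulation fitted relative to vehicle.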

[8] = read-out: Alpha-fetoprotein (AFP) gene, AFP (gene 174); assay: LTEA_HepaRG_AFP: Life Technologies and Expression Analysis (LTEA) Assay for Alpha-fetoprotein (AFP) gene using HepaRG (AID 2283472)
How it was run: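 After a 48 h plating period, cells are moved to serum-free induction medium and dosed in duplicate (100 uM maximum, half-log dilutions, 0.5% DMSO) for another 48 h. Total RNA goes to TaqMan qRT-PCR; AFP signal is housekeeping-normalized.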

BCL2L11 (gene 10018) = assay: LTEA_HepaRG_BCL2L11: Life Technologies and Expression Analysis (LTEA) Assay for Bcl-2 (BCL2L11) gene using HepaRG (AID 2283473)
How it was run: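 BCL2L11 transcript levels are measured by Fluidigm qRT-PCR, normalized to three housekeeping genes. HepaRG cultures were plated 48 h, then treated 48 h with test chemical (top 100 uM, half-log, 0.5% DMSO vehicle); curves were fitted bidirectionally against DMSO.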

[9] = read-out: Apolipoprotein A-V (APOA5) gene, APOA5 (gene 116519); assay: LTEA_HepaRG_APOA5: Life Technologies and Expression Analysis (LTEA) Assay for Apolipoprotein A-V (APOA5) gene using HepaRG (AID 2283474)
How it was run: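 APOA5 transcript levels were quantified by qRT-PCR, normalized to three housekeeping genes, after 48 h chemical treatment of HepaRG cells (8 points, 100 uM maximum, half-log steps, 0.5% DMSO). Curves fitted in both directions against vehicle.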

Measured: outcome

O=[N+]([O-])c1ccccc1[N+](=O)[O-]
inactive: all assays above
